From PubChem BioAssay AID504454 (NMMLSC, 2011)
The entries are a selection whose mix differs from that of the whole data set. Calls of active or inactive are those of the source.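 Rule for the calls: active = response above a set limit, near 3 SD of response in nonfluorescent compounds (cut at about 42% in these data); inactive = the rest.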

Chains of the proteins cited; added tags and fusions are not shown.
UniProt P07550, whole entry: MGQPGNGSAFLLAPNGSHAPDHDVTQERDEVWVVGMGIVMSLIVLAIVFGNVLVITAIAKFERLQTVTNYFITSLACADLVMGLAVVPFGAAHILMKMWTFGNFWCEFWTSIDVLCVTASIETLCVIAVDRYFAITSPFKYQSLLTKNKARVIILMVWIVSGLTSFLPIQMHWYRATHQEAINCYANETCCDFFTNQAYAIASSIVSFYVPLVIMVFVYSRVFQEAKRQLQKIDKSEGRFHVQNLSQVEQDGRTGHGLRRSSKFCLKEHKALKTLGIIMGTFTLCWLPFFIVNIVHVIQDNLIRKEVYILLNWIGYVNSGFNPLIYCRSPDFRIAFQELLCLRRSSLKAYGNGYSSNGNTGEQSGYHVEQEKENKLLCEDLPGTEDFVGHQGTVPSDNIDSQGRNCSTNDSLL

Target: Beta-2 adrenergic receptor (Homo sapiens) (UniProt P07550)
Assay: beta2AR agonists driving receptor internalization, primary screen, cell-based, FAP fluorogen, flow cytometry (AID 504454)
Conditions: Am2.2-beta2AR cells, active compounds read high, concentration not given here

Compound	response
C[C@H]1OP(=O)(Oc2ccccc2)C[C@@H]2O[C@@H]21 (stereo partly specified)	inactive: 1.22%
C[C@@H]1C=CCP(=O)(Oc2ccccc2)O1 (stereo partly specified)	inactive: -0.25%
CCc1cc(O)c([N+](=O)[O-])c(C)c1[N+](=O)[O-]	inactive: -2.54%
CP(=O)(Nc1ccccc1F)Oc1ccccc1 (stereo unspecified)	inactive: 5.63%
CC(C)(C)C(=O)NC(Sc1ccccc1)C(Cl)(Cl)Cl (stereo unspecified)	inactive: -1.33%
CC(C)c1ccc(OP(C)(=O)Nc2ccc(SC(F)(F)F)cc2)cc1 (stereo unspecified)	inactive: -2.94%
O=P1(Nc2nc3ccc(Cl)cc3s2)COc2ccccc2O1 (stereo unspecified)	inactive: -2.66%
CCOc1ccc(C2=NCC(CBr)S2)cc1 (stereo unspecified)	inactive: 1.71%
Cc1ccccc1NP(C)(=O)Nc1ccccc1C	inactive: -1.14%
CP(=O)(Nc1ccc2c(c1)OCCO2)Oc1ccccc1 (stereo unspecified)	inactive: -1.23%
CCOP(C)(=S)SCC(=O)NC(C)(CC)C(=O)O (stereo unspecified)	inactive: 3.68%
c1nnnn1CCn1cnnn1	inactive: -6.55%
CP(=O)(Nc1ccc(SC(F)(F)F)cc1)Oc1ccc(F)cc1 (stereo unspecified)	inactive: -3.2%
O=P(Nc1nccs1)(c1ccccc1)c1ccccc1	inactive: 5.51%
CC(C)C(=O)NC(Sc1ccccc1)C(Cl)(Cl)Cl (stereo unspecified)	inactive: -5.34%
Cc1c(C(c2ccc3c(c2)OCO3)c2c(C)n(C)n(-c3ccccc3)c2=O)c(=O)n(-c2ccccc2)n1C.O=[N+]([O-])c1cc([N+](=O)[O-])c(O)c([N+](=O)[O-])c1	inactive: -3.66%
C(Cc1nn[nH]n1)Cc1nn[nH]n1	inactive: 2.87%
Nc1ccc([As](=O)(O)c2ccc([N+](=O)[O-])cc2)cc1	inactive: 2.59%
O=C(OC1CN2CCC1CC2)c1cccc(Cl)c1 (stereo unspecified)	inactive: -1.03%

Compound	response
O=[N+]([O-])c1ccc(OP2(=O)COCCO2)cc1 (stereo unspecified)	inactive: -4.66%
CC(=O)NC(SC(=S)N(C)C)C(Cl)(Cl)Cl (stereo unspecified)	inactive: 1.02%
O=[N+]([O-])c1ncn(CCn2cnc([N+](=O)[O-])n2)n1	inactive: 4.27%
O=[N+]([O-])c1ccc(O)c(/C=N/Nc2ccc([N+](=O)[O-])cc2[N+](=O)[O-])c1	inactive: 31%
O=[As](O)(c1ccccc1)c1ccc(O)cc1	inactive: -1.26%
Cc1cc(-c2cccc3ccccc23)c(C)cn1.O=[N+]([O-])c1cc([N+](=O)[O-])c(O)c([N+](=O)[O-])c1	inactive: 9.63%
O=[N+]([O-])c1cc([N+](=O)[O-])c(NCC2CCS(=O)(=O)C2)c([N+](=O)[O-])c1 (stereo unspecified)	inactive: 2.83%
O=P(Nc1nc2ccccc2s1)(c1ccccc1)c1ccccc1	inactive: 5.76%
CN(C)CCOC(=O)C(O)(c1ccccc1)C1CCCCC1 (stereo unspecified)	inactive: 7.99%
C[C@H]1OP(=O)(Oc2ccccc2)[C@H](O)[C@H](O)[C@H]1N=[N+]=[N-] (stereo partly specified)	inactive: 0.52%
COc1ccc(NP(C)(=O)Oc2ccccc2OC)cc1 (stereo unspecified)	inactive: 2.32%
COc1ccc(OP(C)(=O)Nc2cccc(Br)c2)cc1 (stereo unspecified)	inactive: -1.03%
COc1ccc(N)c([N+](=O)[O-])c1[N+](=O)[O-]	inactive: -0.7%
CN(C)C1(CNC(=O)c2ccc(Cl)c(S(N)(=O)=O)c2)CCCCC1	inactive: 16.1%
O=P(Nc1ccccn1)(c1ccc(Br)cc1)c1ccc(Br)cc1	inactive: 9.77%
Cc1ccc(OCC(=O)OC2CN3CCC2CC3)cc1 (stereo unspecified)	inactive: -2.09%
O=[As](O)(c1cccs1)c1cccs1	inactive: -0.09%
NS(=O)(=O)c1cccc(NC(=O)COC(=O)C(O)(c2ccccc2)c2ccccc2)c1	inactive: -1.32%
O=P1(Nc2ccc(Br)cn2)COc2ccccc2OC1	inactive: 2.4%

Compound	response
CCCOc1ccc(NP(C)(=O)Oc2ccc(Cl)cc2)cc1 (stereo unspecified)	inactive: -11.3%
CP(=O)(Nc1ccc(SC(F)(F)F)cc1)Oc1ccccc1 (stereo unspecified)	inactive: 2.71%
Nc1cccc([As](=O)(O)c2ccccc2)c1	inactive: 2.9%
CN1CCCCC1COC(=O)C1(O)c2ccccc2CCc2ccccc21 (stereo unspecified)	inactive: 16.2%
COc1ccccc1OP(C)(=O)Nc1c(C)cccc1C (stereo unspecified)	inactive: -2.22%
O=P1(Nc2ncccn2)COc2ccccc2OC1	inactive: 8.5%
O=C(/C=C/c1ccccc1)OC1CN2CCC1CC2 (stereo unspecified)	inactive: -5.67%
CCCC1OP(=O)(Nc2ccccc2)OCC1CC (stereo unspecified)	inactive: 0.14%
CC1=C2N=C(C=C3N=C(C(C)=C4[N-][C@@](C)([C@@H]5N=C1[C@](C)(CCC(=O)NC[C@@H](C)OP(=O)([O-])O[C@H]1[C@@H](O)[C@@H](n6cnc7cc(C)c(C)cc76)O[C@@H]1CO)[C@H]5CC(N)=O)[C@@](C)(CC(N)=O)[C@@H]4CCC(N)=O)[C@@](C)(CC(N)=O)[C@@H]3CCC(N)=O)C(C)(C)[C@@H]2CCC(N)=O.[C-]#N.[Co+3]	inactive: -4.31%
CN(C)C1(CNC(=O)c2ccc(S(C)(=O)=O)cc2)CCCCC1	inactive: 0.36%
O=[N+]([O-])c1cc([N+](=O)[O-])c(Nc2nnnn2CCO)c([N+](=O)[O-])c1	inactive: 4.6%
CCOC(=O)C(CC)C1=NC(C)(C)Cc2ccccc21.O=[N+]([O-])c1cc([N+](=O)[O-])c(O)c([N+](=O)[O-])c1 (stereo unspecified)	inactive: 2.34%
COc1cc(C2NCCC3(OCCO3)C2(C)C)cc(OC)c1OC.O=[N+]([O-])c1cc([N+](=O)[O-])c(O)c([N+](=O)[O-])c1 (stereo unspecified)	inactive: 11.2%
Cc1nn(-c2ccccc2)c2c1P(=O)(N1CCOCC1)N(C)C(c1ccccc1)=N2 (stereo unspecified)	inactive: -0.01%
Cc1ccc(C(=O)OC2CN3CCC2CC3)cc1 (stereo unspecified)	inactive: -0.58%
CC1CCC(C(C)C)C(OP(=O)(Nc2ccccn2)c2ccccc2)C1 (stereo unspecified)	inactive: 17.5%
CC1(CBr)Cn2c(nc3ccccc3c2=O)S1 (stereo unspecified)	inactive: -10.8%
Cc1nc2ccc3ccccc3c2s1.O=[N+]([O-])c1cc([N+](=O)[O-])c(O)c([N+](=O)[O-])c1	inactive: -2.15%
